Experimental data as given in ChEMBL document CHEMBL3244068 (J Med Chem, 1978).

Test: Stability of the compound in acetone assessed as hydrolysis at 66 degC after 30 mins
Settings: 0.5 h

Cc1cccc(N(CCCl)CCCl)c1
log(%): 1.32

This is a selection: effects in other tests are not listed, and their absence says nothing.
